The data set can be described thus: CNS pharmacokinetic study in mice (microdialysis, CE-UV). Format: in vivo, C57BL/6J mice. Particulars: male, C57BL/6J, mouse, CSF (lateral ventricle microdialysate) / serum, ip, 2.5 mg/kg i.p., read-out: CNS penetration (CSF-to-serum AUC ratio). The protocol:
The total of 90 male wild type C57BL/6J mice were used in this study. C57BL/6J mice were approximately 2 months of age and weighed 20˜25 g. All mice were housed in a temperature-controlled room ([…]) with a 12:12 light dark cycle (lights on at 0600). Purina 5001 Rodent Chow and tap water were available ad libitum at all times. Mouse use was approved by Mayo Foundation Institutional Animal Use and Care Committee (IACUC) and was consistent with NIH Guide for the Care and Use of Laboratory Animals. Agelastatin A was synthesized by Professor Takehiko Yoshimitsu at Graduate School of Pharmaceutical Sciences, Osaka University, Osaka, Japan. Professor Yoshimitsu has described details on the synthesis of this compound. Purity as determined by NMR spectra is >99%.
A total of five mice were used in microdialysis experiments. On the day of surgery, mice were anesthetized with gasiform isoflurane (1% isoflurane in a mixture of 20% oxygen and 80% nitrogen gas) and immobilized in a stereotaxic frame (KOPF Instruments, Tujunga, Calif.). Anesthesia was maintained during the entire procedure. […]
Agelastatin A in the microdialysate, serum, brain and eye tissues was measured by CE-UV (Agilent 3D CE). […] The absorbance from Agelastatin A was detected with UV at 280 nanomoles. […] CNS penetration was determined as the ratio of CSF and blood area under the curve (AUC).

Take `CN1C(=O)N[C@H]2[C@@H]3NC(=O)c4ccc(Br)n4[C@@H]3C[C@]21O` [AA, agelastatin A, reference compound]: the Kp was found to be 0.101.

The values above are taken from US9464093B2, “Substituted imidazo[4',5':4,5]cyclopenta[1,2-e]pyrrolo[1,2-a]pyrazines and oxazolo[4',5':4,5]cyclopenta[1,2-e]pyrrolo[1,2-a]pyrazines for treating brain cancer” (Mayo Foundation for Medical Education and Research, priority 2012, dated 2016).
